Measurements from PubChem BioAssay AID853 (Columbia University Molecular Screening Center, 2007).
Only a part is listed here, and it is no random draw. Calls of active or inactive are those of the source.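 The calls were made as follows: active = inhibition of aggregate fluorescence above about 70%, also judged a hit by eye on the cell image (limit read from the data, passing the limit was not always enough); inconclusive = no rule stated for this call; inactive = not judged a hit on image review.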

Assay: removal of polyQ htt aggregates in HeLa – imaging, HeLa Exon1htt(103Q)mCFP, confocal imaging, primary screen (AID 853);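 also: cells exposed to compound for three days before fixation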
Details: aggregate imaging, at 1.5 µM, stronger effect = higher value, zero = plate's median compound well

Row | SMILES | inhibition
1 | COc1ccc(NC2CCN(CCc3ccccc3)CC2)c(OC)c1 | inactive: -21.5%
2 | N#CC1(Nc2ccccc2)CCN(CCc2ccccc2)CC1 | inactive: 11.3%
